This passage reports MIC results from ChEMBL document CHEMBL1156451 (J Biol Chem, 2007).

≈ marks a conversion by molar mass, not a printed value.

What all share (assay type): functional
Assay [1] concerns Escherichia coli. Kind of assay: Antibacterial activity against Escherichia coli K12 ATCC 23716 after 24 hrs in Mueller-Hinton broth medium. To be noted: K12, 24 h.
In a further assay the test system is Pseudomonas aeruginosa. Briefly: Antibacterial activity against Pseudomonas aeruginosa CUN 4158-02 after 24 hrs in Mueller-Hinton broth medium.
The subject of another assay is Staphylococcus aureus. Kind of assay: Antibacterial activity against methicillin-resistant Staphylococcus aureus ATCC 43300 after 24 hrs in Mueller-Hinton broth medium. To be noted: ATCC 43300, 24 h.
For assay [2], the system named is Escherichia coli. Briefly: Antibacterial activity against Escherichia coli K12 ATCC 23716 in 10% Luria-Bertani medium/90% Hepes buffer at pH 7.0.
In assay [3] the test system is Escherichia coli. Kind of assay: Antibacterial activity against Escherichia coli ATCC 25922 after 24 hrs in Mueller-Hinton broth medium. To be noted: ATCC 25922, 24 h.

In the case of `CC[C@H](C)[C@H](NC(=O)CN)C(=O)NCC(=O)N[C@@H](C)C(=O)N[C@H](C(=O)N[C@@H](CC(C)C)C(=O)N[C@@H](CCCCN)C(=O)N[C@H](C(=O)N[C@@H](CC(C)C)C(=O)N[C@H](C(=O)N[C@H](C(=O)NCC(=O)N[C@@H](CC(C)C)C(=O)N1CCC[C@H]1C(=O)N[C@@H](C)C(=O)N[C@@H](CC(C)C)C(=O)N[C@H](C(=O)N[C@@H](CO)C(=O)N[C@@H](Cc1c[nH]c2ccccc12)C(=O)N[C@H](C(=O)N[C@@H](CCCCN)C(=O)N[C@@H](CCCNC(=N)N)C(=O)N[C@@H](CCCCN)C(=O)N[C@@H](CCCNC(=N)N)C(=O)N[C@@H](CCC(N)=O)C(=O)N[C@@H](CCC(N)=O)C(N)=O)[C@@H](C)CC)[C@@H](C)CC)[C@@H](C)O)[C@@H](C)O)C(C)C)C(C)C` [MELITTIN], the MIC (usually the lowest concentration that inhibits growth of the organism) in the assay on Escherichia coli [1] was found to be 4 µg/mL (≈ 1.41 µM); in the assay on Pseudomonas aeruginosa it was 16 µg/mL (≈ 5.62 µM); in the assay on Staphylococcus aureus, 2 µg/mL (≈ 0.703 µM); with Escherichia coli [2], 12.5 µg/mL (≈ 4.39 µM); against Escherichia coli [3] it was 4 µg/mL (≈ 1.41 µM).
